# AlphaSeq binding of Ab-95 light chain variants to a spike HR2 peptide

The target is the same throughout: PDVDLGDISGINAS, from the HR2 region of SARS-CoV-2 spike.

Ab-95 is the parent antibody, in scFv form: VH, then three GGGGS repeats, then VL. The heavy chain is unchanged in all variants.
VH: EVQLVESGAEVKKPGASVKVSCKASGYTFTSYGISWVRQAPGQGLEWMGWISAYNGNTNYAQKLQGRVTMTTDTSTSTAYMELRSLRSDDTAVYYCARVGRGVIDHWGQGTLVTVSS
VL: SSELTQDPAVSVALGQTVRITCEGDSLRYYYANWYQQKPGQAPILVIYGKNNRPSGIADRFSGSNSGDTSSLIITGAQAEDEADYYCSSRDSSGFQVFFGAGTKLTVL

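The starting antibody came from a phage panning campaign against this peptide. Variants in AAYL52 differ from the parent at up to three CDR positions; double and triple changes were sampled at random. The scFvs were displayed on barcoded MATa yeast, the peptide on MATalpha yeast. Binding brings cells together so that they mate, and sequencing counts the barcode pairs among the diploids. The ratio of observed to expected reads was calibrated, replicate by replicate, on BCL2-family standards whose Kd was known from biolayer interferometry. The assay was run in three technical replicates.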

Positions count from residue 1 of the parent VL; Y30N puts N in place of Y.
Affinities are written as log10 Kd with Kd in nM; a lower number is a better binder.
The mean shown is taken over the replicates in which the pair was detected.
A pair that was not seen in any replicate is written "no signal"; this usually means weak binding, but a binder can also be missed.
Order: sorted from the lowest average up, undetected variants last.
Empty control strains, which show no peptide, gave a signal in 28% of pairings with library AAYL52; the median was 3.91 and 95% of these signals were weaker than 2.90. No background was subtracted. Also given: how often the same scFv was detected with the empty control strains.

changes	mean, log10 nM	replicates with signal	signal with controls
Y30N Q96H	0.36	3/3	8/9
Y29W Y30Q S93Q	1.04	3/3	4/9
E23N Y30D N52E	1.55	3/3	5/9
S88Y R90H	1.69	3/3	3/9
Y30G S55W F95K	1.71	3/3	2/9
D25A S89A R90Q	1.88	3/3	0/9
D91E Q96A F98R	2.01	3/3	1/9
E23G Y30S A32M	2.22	3/3	4/9
G24V R28Q R53V	2.24	3/3	1/9
E23A R28N F98C	2.25	3/3	5/9
D91N V97Y F98C	2.29	3/3	2/9
R53T P54M S55N	2.33	3/3	2/9
R53K S93D Q96G	2.39	3/3	2/9
Y31C K50L V97Q	2.43	3/3	5/9
Y30M N51S V97P	2.58	3/3	0/9
Y29N Y30V R53N	2.64	3/3	3/9
R28C Y31S Q96T	2.70	3/3	3/9
E23I R90A G94F	2.73	3/3	4/9
G24M S26E N51S	2.76	3/3	4/9
Q96A V97Y F98W	2.77	3/3	1/9
R28L S89F F95A	2.77	3/3	2/9
R28G N33M D91E	2.78	2/3	3/9
R28A S92D	2.85	3/3	0/9
Y29F D91H S92A	2.92	3/3	2/9
D91T F98W	2.94	3/3	1/9
N33A N51H	3.05	3/3	3/9
P54W S55G F98M	3.05	2/3	5/9
G24N N51S Q96W	3.13	1/3	1/9
L27I Y30I S55V	3.19	1/3	1/9
N52I R53L R90W	3.22	3/3	3/9
Y31Q G49P S88V	3.23	1/3	1/9
N51M S89D R90S	3.24	3/3	3/9
E23N A32C N33Q	3.27	3/3	3/9
S88W G94E Q96K	3.28	3/3	5/9
S26Y Y29V N33K	3.31	2/3	3/9
N33M S89P	3.50	1/3	0/9

Further variants, results first:

mean, log10 nM	replicates with signal	signal with controls	changes
3.54	2/3	7/9	E23G N51R F98T
3.66	2/3	5/9	D25P G49Q F98C
3.68	2/3	4/9	R28W A32M N33A
3.69	3/3	3/9	D25Q N52A R90G
3.72	2/3	3/9	D25G N52Y S88W
3.75	2/3	2/9	Y31W N33Q
3.81	1/3	4/9	K50W N52S R90E
3.92	3/3	5/9	G24L S26E
3.97	1/3	3/9	G24L A32C R53G
4.04	2/3	1/9	N33I S92P
4.13	2/3	1/9	R28W Q96F F98A
4.14	1/3	3/9	R28M G49S R90L
4.17	3/3	5/9	E23R R28N V97G
4.19	2/3	3/9	N33W N52A S89R
4.26	1/3	5/9	S26I R28Y Q96G
4.50	2/3	3/9	N52A P54L R90G
4.58	2/3	2/9	Y29F N33H D91F
4.75	1/3	2/9	N33M F98I
4.85	2/3	5/9	S89D R90Q V97S
5.06	2/3	3/9	Y31C A32H G94L
5.24	2/3	2/9	R28Y G49F G94L
5.32	3/3	1/9	Y29R A32R P54N
no signal	0/3	1/9	G24K R53I S88F
no signal	0/3	4/9	L27H N51H F98V
no signal	0/3	3/9	G24E R53F S93D
no signal	0/3	1/9	N51W S55M G94W
no signal	0/3	0/9	A32F V97I
no signal	0/3	0/9	G49M K50Q S89Y
no signal	0/3	3/9	L27W R90M S92C
no signal	0/3	5/9	N33A S55G V97I
no signal	0/3	2/9	L27Q P54E G94H
no signal	0/3	5/9	N33F S88W S89Q
no signal	0/3	2/9	S26D N33E S92F
no signal	0/3	0/9	L27S N33E R53E
no signal	0/3	3/9	L27H D91A S92N
no signal	0/3	3/9	E23L G24R R90G

The closing 11 entries, repeated:

changes	mean, log10 nM	replicates with signal	signal with controls
N51W S55M G94W	no signal	0/3	1/9
A32F V97I	no signal	0/3	0/9
G49M K50Q S89Y	no signal	0/3	0/9
L27W R90M S92C	no signal	0/3	3/9
N33A S55G V97I	no signal	0/3	5/9
L27Q P54E G94H	no signal	0/3	2/9
N33F S88W S89Q	no signal	0/3	5/9
S26D N33E S92F	no signal	0/3	2/9
L27S N33E R53E	no signal	0/3	0/9
L27H D91A S92N	no signal	0/3	3/9
E23L G24R R90G	no signal	0/3	3/9

The measurements come from Engelhart et al. 2022 (doi:10.1038/s41597-022-01779-4) through the FLAb antibody collection.